# Values of other authors in US20070135390A1, “Phosphate derivatives” (priority 2003, published 2007).
# Conditions: printed as in vitro use; phosphate group is slow to hydrolyse
substance,measurement,value
"Phenol, 2,6-bis(1-methylethyl)-, dihydrogen phosphate (9CI) [propofol phosphate]",release of the parent drug,does not release the parent drug
